Bounds are passed on as bounds.

Regarding “Mono(S-2'-Hydroxypropyl)-γ-cyclodextrin [Example 5]”, the solubility in water is given as > 50%.

Values taken from patent US5173481A, “Preparation of specifically substituted cyclodextrins” (The United States of America as represented by the …, priority 1990, dated 1992).
